Assay results published in US20090081786A1, “Peptide sequences for modulation of protein kinase C” (priority 2006, published 2009).
Entries after “also recorded” stand apart in the source; their conditions may differ.

Tested on: δ-PKC
Test: PMA-induced translocation of δ-PKC from soluble to particulate fraction in CHO cells
Assay type: cell-based, hamster
Details: 1 μM peptide pretreatment, 5 minutes of PMA stimulation
Experimental: The CHO cells of Example 1 were fractionated, stimulated, and washed with cold PBS, scraped in homogenization buffer, and spun at 100,000 g for 30 min at 4° C., resulting in the soluble fraction. The pellet was then resuspended in a homogenization buffer with 1% TRITON X-100, and spun under the same conditions. Where applicable, the cells were pre-incubated with 1 μM peptide for 15 minutes prior to stimulation. The samples were then analyzed using a Western blot, and the loading was corrected for protein concentration using an internal control such as actin.

## EpAnxV: pAnxV in which the arginine in annexin V was replaced with the glutamate found in δ-PKC (SEQ ID NO:33) (YGRKKRRQRRRCCLQANEDPD; listed as Homo sapiens)
  PMA-induced translocation of δ-PKC to the particulate fraction: inhibitory effect on δ-PKC translocation was lost; also recorded: did not inhibit
